The source of these data is ChEMBL document CHEMBL1149309, “Potent, selective and low-calcemic inhibitors of CYP24 hydroxylase: 24-sulfoximine analogues of the hormone 1alpha,25-dihydroxyvitamin D(3)” (J Med Chem, 2004).

Some results are limits rather than exact numbers.

The target in this assay is T1, Sterol 26-hydroxylase, mitochondrial (Homo sapiens, UniProt Q02318).
T1 sequence (Q02318 whole entry): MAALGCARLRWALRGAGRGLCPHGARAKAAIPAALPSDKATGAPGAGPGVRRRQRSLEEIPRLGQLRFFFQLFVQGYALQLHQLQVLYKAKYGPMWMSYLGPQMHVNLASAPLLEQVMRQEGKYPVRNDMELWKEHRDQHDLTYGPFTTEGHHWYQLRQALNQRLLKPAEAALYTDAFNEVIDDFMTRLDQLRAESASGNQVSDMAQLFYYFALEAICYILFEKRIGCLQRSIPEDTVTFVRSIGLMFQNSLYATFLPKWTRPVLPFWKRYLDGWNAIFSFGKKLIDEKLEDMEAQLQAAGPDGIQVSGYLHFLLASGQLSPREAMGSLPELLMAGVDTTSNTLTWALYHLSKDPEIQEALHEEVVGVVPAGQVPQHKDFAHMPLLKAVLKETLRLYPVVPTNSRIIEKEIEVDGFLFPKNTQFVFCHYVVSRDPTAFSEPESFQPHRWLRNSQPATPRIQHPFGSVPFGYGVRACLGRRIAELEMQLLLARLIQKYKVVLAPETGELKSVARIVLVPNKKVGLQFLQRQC
Briefly: Inhibition of human CYP27A1 hydroxylase expressed in V79 cells. In kind it is cell-based.

The IC50 is the concentration that gives 50% inhibition. Take `C=C1/C(=C\C=C2/CCC[C@]3(C)[C@@H]([C@H](C)CCS(=N)(=O)c4ccccc4)CC[C@@H]23)C[C@@H](O)C[C@@H]1O` (stereo in doubt; 3a): the IC50 is greater than 1000 nM.
